Experimental data published in PMC3880643 (Journal of medicinal chemistry, 2013).

How the values were obtained:
[1] = tested on: H3K9me2 levels in MDA-MB-231 cells; test: cells; conditions: Homo sapiens, MDA-MB-231, 48 h, read-out: H3K9me2 IC50
[2] = tested on: H3K9me2 levels in PANC-1 cells; test: H3K9me2 in-cell western assay; assay type: cell-based; conditions: Homo sapiens, PANC-1, 48 h, read-out: H3K9me2 IC50

| Compound | IC50 [1] [nM] | IC50 [2] [nM] |
| --- | --- | --- |
| COc1cc2c(NC3CCN(C(C)C)CC3)nc(C3CCCCC3)nc2cc1OCCCN1CCCC1 [Compound 5, reference compound] | 81 |  |
| COc1cc2c(NC3CCN(C(C)C)CC3)nc(N3CCC(F)(F)CC3)nc2cc1OCCCN1CCCC1 [Compound 7, 2-(4,4-Difluoropiperidin-1-yl)-N-(1-isopropylpiperidin-4-yl)-6-methoxy-7-(3-(pyrrolidin-1-yl)propoxy)quinazolin-4-amine] |  | < 150 |
| COc1cc2c(NC3CCN(C(C)C)CC3)nc(N3CCCCCC3)nc2cc1OCCCN1CCCC1 [Compound 17] | 100 |  |
